For assay [1], the target named is T1, Polyunsaturated fatty acid lipoxygenase ALOX15 (Oryctolagus cuniculus, UniProt P12530).
T1 sequence (P12530 whole entry): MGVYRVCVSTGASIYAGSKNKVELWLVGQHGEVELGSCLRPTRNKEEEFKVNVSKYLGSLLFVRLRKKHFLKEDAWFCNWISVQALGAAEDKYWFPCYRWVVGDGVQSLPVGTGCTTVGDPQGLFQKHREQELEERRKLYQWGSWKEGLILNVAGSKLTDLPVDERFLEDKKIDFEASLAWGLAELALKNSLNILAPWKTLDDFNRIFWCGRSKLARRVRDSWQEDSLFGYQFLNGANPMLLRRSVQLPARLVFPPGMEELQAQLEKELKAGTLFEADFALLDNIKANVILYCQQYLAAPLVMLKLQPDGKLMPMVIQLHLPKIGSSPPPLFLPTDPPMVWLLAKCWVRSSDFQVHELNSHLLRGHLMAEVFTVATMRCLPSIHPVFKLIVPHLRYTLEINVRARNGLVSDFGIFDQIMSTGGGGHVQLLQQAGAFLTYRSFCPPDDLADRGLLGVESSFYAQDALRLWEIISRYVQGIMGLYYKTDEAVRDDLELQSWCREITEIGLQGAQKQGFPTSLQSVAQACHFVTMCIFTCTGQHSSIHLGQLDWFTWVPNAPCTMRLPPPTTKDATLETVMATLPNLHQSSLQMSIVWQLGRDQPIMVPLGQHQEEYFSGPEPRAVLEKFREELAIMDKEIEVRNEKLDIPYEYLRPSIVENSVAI
In words: Inhibition of rabbit 15-lipoxygenase in presence of linoleic acid.

Assay [2] has as its target T1, Polyunsaturated fatty acid lipoxygenase ALOX15. In words: Inhibition of rabbit 15-lipoxygenase in presence of arachidonic acid.

`CCN([C@@H]1CCN(C(C)c2ccc(F)cc2)C1)S(=O)(=O)NCCc1nc(-c2cccs2)[nH]c1-c1ccc(OC)cc1` (some centres not stated): the IC50 is 3 nM in assay [1] and 75 nM in assay [2].

One may read the IC50 as the concentration that gives 50% inhibition.
